Earlier results on 1 substance are cited in publication PMC3267170, “Pharmacological Modulation of Diacylglycerol-Sensitive TRPC3/6/7 Channels” (Current Pharmaceutical Biotechnology, 2011).

For this series the following is noted: exposed to light and oxygen; cited from earlier work.

Turning to hyperforin, the stability result was “very unstable”.
